Measurements from PubChem BioAssay (NCI).
Some of these compounds have results that are not shown, active ones among them.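 In this assay, cells in 96-well plates receive the compound at five concentrations for 48 hours. Endpoints are linearly interpolated between the surrounding concentrations. TGI marks complete inhibition of growth.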

Legend:
Assay in all cases: NCI-60 cell line screen, 48 h
786-0 renal = test system: 786-0 renal
A498 renal = test system: A498 renal
A549 NSCLC = test system: A549 NSCLC
ACHN renal = test system: ACHN renal
BT-549 breast = test system: BT-549 breast
CAKI-1 renal = test system: CAKI-1 renal
CCRF-CEM leukemia = test system: CCRF-CEM leukemia
COLO 205 colon = test system: COLO 205 colon
DU-145 prostate = test system: DU-145 prostate
EKVX NSCLC = test system: EKVX NSCLC
HCC-2998 colon = test system: HCC-2998 colon
HCT-116 colon = test system: HCT-116 colon
HCT-15 colon = test system: HCT-15 colon
HL-60(TB) leukemia = test system: HL-60(TB) leukemia
HOP-62 NSCLC = test system: HOP-62 NSCLC
HOP-92 NSCLC = test system: HOP-92 NSCLC
HS 578T breast = test system: HS 578T breast
HT29 colon = test system: HT29 colon
IGROV1 ovarian = test system: IGROV1 ovarian
K-562 leukemia = test system: K-562 leukemia
KM12 colon = test system: KM12 colon
LOX IMVI melanoma = test system: LOX IMVI melanoma
M14 melanoma = test system: M14 melanoma
MALME-3M melanoma = test system: MALME-3M melanoma
MCF7 breast = test system: MCF7 breast
MDA-MB-231 breast = test system: MDA-MB-231 breast
MDA-MB-435 = test system: MDA-MB-435
MDA-N = test system: MDA-N
MOLT-4 leukemia = test system: MOLT-4 leukemia
NCI-H226 lung = test system: NCI-H226 lung
NCI-H23 lung = test system: NCI-H23 lung
NCI-H460 lung = test system: NCI-H460 lung
NCI-H522 lung = test system: NCI-H522 lung
NCI/ADR-RES ovarian = test system: NCI/ADR-RES ovarian
OVCAR-3 ovarian = test system: OVCAR-3 ovarian
OVCAR-4 ovarian = test system: OVCAR-4 ovarian
OVCAR-5 ovarian = test system: OVCAR-5 ovarian
OVCAR-8 ovarian = test system: OVCAR-8 ovarian
PC-3 prostate = test system: PC-3 prostate
RPMI-8226 leukemia = test system: RPMI-8226 leukemia
RXF 393 renal = test system: RXF 393 renal
SF-268 CNS = test system: SF-268 CNS
SF-295 CNS = test system: SF-295 CNS
SF-539 CNS = test system: SF-539 CNS
SK-MEL-2 melanoma = test system: SK-MEL-2 melanoma
SK-MEL-28 melanoma = test system: SK-MEL-28 melanoma
SK-MEL-5 melanoma = test system: SK-MEL-5 melanoma
SK-OV-3 ovarian = test system: SK-OV-3 ovarian
SN12C renal = test system: SN12C renal
SNB-19 CNS = test system: SNB-19 CNS
SNB-75 CNS = test system: SNB-75 CNS
SR leukemia = test system: SR leukemia
SW-620 colon = test system: SW-620 colon
T-47D breast = test system: T-47D breast
TK-10 renal = test system: TK-10 renal
U251 CNS = test system: U251 CNS
UACC-257 melanoma = test system: UACC-257 melanoma
UACC-62 melanoma = test system: UACC-62 melanoma
UO-31 renal = test system: UO-31 renal

Measured: TGI

CCC#CC(O)(C(=O)OC1CC2CCC(C1)N2C)c1ccccc1 (centres undefined)
> 100 µM: 786-0 renal | A498 renal | A549 NSCLC | ACHN renal | BT-549 breast | CAKI-1 renal | CCRF-CEM leukemia | COLO 205 colon | DU-145 prostate | EKVX NSCLC | HCC-2998 colon | HCT-116 colon | HCT-15 colon | HL-60(TB) leukemia | HOP-62 NSCLC | HOP-92 NSCLC | HS 578T breast | HT29 colon | IGROV1 ovarian | K-562 leukemia | KM12 colon | LOX IMVI melanoma | M14 melanoma | MALME-3M melanoma | MCF7 breast | MDA-MB-231 breast | MDA-MB-435 | MDA-N | MOLT-4 leukemia | NCI-H226 lung | NCI-H23 lung | NCI-H460 lung | NCI-H522 lung | NCI/ADR-RES ovarian | OVCAR-3 ovarian | OVCAR-4 ovarian | OVCAR-5 ovarian | OVCAR-8 ovarian | PC-3 prostate | RPMI-8226 leukemia | RXF 393 renal | SF-268 CNS | SF-295 CNS | SF-539 CNS | SK-MEL-2 melanoma | SK-MEL-28 melanoma | SK-MEL-5 melanoma | SK-OV-3 ovarian | SN12C renal | SNB-19 CNS | SNB-75 CNS | SR leukemia | SW-620 colon | T-47D breast | TK-10 renal | U251 CNS | UACC-257 melanoma | UACC-62 melanoma | UO-31 renal
